## Experimental water solubility values from OPERA 2.9

Water solubility is log10 of mol/L, nominally at 25 °C; higher is more soluble.

compound,log solubility (log10 mol/L)
O=P(O)(Oc1ccc2ccccc2c1)Oc1ccc2ccccc2c1,-2.942
Cc1ccc2nc(-c3ccc(N)cc3)sc2c1,-3.68
Cc1cc(/N=N/c2c(O)ccc3ccccc23)c(S(=O)(=O)[O-])cc1Cl.Cc1cc(/N=N/c2c(O)ccc3ccccc23)c(S(=O)(=O)[O-])cc1Cl.[Ba+2],-5.688
O=C(N/N=C/C=C/c1ccc([N+](=O)[O-])o1)C(Cl)Cl,-4.164
O=Cc1ccc(O)c(O)c1,-1.34
N#Cc1ccc2[nH]cc(CCCCN3CCN(c4ccc5oc(C(N)=O)cc5c4)CC3)c2c1,-3.555
CC1CCC(C)(C(=O)O)C1(C)C (configuration not stated),-3.027
CC(=O)OCCCc1ccccc1,-2.658
CC(C)CCCCCCCCCCCCCCC(=O)OCC(C)O (configuration not stated),-7.234
CCCCOCCOC(=O)CCCOc1ccc(Cl)cc1Cl,-6.09
Nc1c(Cl)c(Cl)cc(Cl)c1Cl,-4.38
C#CCOc1c(I)cc(I)cc1/C=N/NC(=O)Cn1nnc(-c2ccccc2Cl)n1,-2.665
Cc1ccc(NS(=O)(=O)c2ccc(N)cc2)nn1,-2.637
C#CC(C)(O)CC(C)C (configuration not stated),-1.06
CN(C)c1ccc(N=Nc2ccc(S(=O)(=O)O)cc2)cc1,-3.86
CC(=O)c1ccc2c(c1)N(CCCN1CCN(CCO)CC1)c1ccccc1S2,-3.836
COc1ccc(C(=O)Nc2ccccc2)cc1N=Nc1c(O)c(C(=O)Nc2ccc3[nH]c(=O)[nH]c3c2)cc2ccccc12,-8.479
CCCCCCCCCCCCCCCCCCCCCCCCC,-7.851
Oc1nc(O)c2nc(Cl)[nH]c2n1,-3.048
C=CCSS(=O)CC=C (configuration not stated),-0.83
CC(C(=O)O)c1ccc(N2Cc3ccccc3C2=O)cc1 (configuration not stated),-4.804
C[C@H](CCC[C@H](C)C(=O)O)C(=O)O,-0.932
CCOC(=O)C(Cc1ccccc1C(=O)O)C(=O)OCC,-2.816
NC(CC1CCC(O)CC1)C(=O)O (configuration not stated),-0.353
C[C@@H](OC(=S)N(C)C)C(=O)O,-0.947
CCN(CC)CCOC(=O)c1ccc(N)cc1Cl,-2.319
CCCC(=O)c1ccc2c(c1)N(CCCN1CCN(C)CC1)c1ccccc1S2,-2.161
O=C(O)[C@H]1CC[C@H](C(=O)O)CC1,-2.333
COc1ccccc1N=NC(C(C)=O)C(=O)Nc1ccc2[nH]c(=O)[nH]c2c1 (configuration not stated),-7.631
NC(=O)c1ccccc1[N+](=O)[O-],-2.01
CC1=CCC(C)C(C)C1=O (configuration not stated),-1.885
CCCCC(=O)CC(C)=O,-1.56
NC(=S)N/N=C/C=C/c1ccc([N+](=O)[O-])o1,-3.933
COc1ccc2c(c1)-c1nn(CCCN(C)C)c3ccc([N+](=O)[O-])c(c13)N2,-2.739
COC1CC2CC1C1CC(C=O)CC21 (configuration not stated),-1.651
C=CC1=C(C)c2cc3[nH]c(cc4nc(cc5[nH]c(cc1n2)c(C)c5CCC(=O)O)C(CCC(=O)O)=C4C)c(C)c3C=C,-3.52
CC1(C)COC(C)(CCCc2ccc(Cl)cc2)N1C(=O)n1ccnc1.CC1(C)COC(C)(CCCc2ccc(Cl)cc2)N1C(=O)n1ccnc1.O=C(O)/C=C/C(=O)O (stereo partly drawn),-3.73
CC1=NOC(=O)C1=NO,-0.539
O=C(NC(=O)c1ccccc1)c1ccccc1,-2.27
CCCCCCCCCc1ccccc1,-6.766
NC(=O)c1ccccc1Cl,-0.883
CNC(=O)c1ncnc2nc[nH]c12,-2.364
CCCCCCCCCCCCOC(=O)/C=C/C(=O)OCCCCCCCCCCCC,-6.48
CCCCCCCCCCCCCCN(C)C,-3.936
Cc1cc(N(CCO)CCO)ccc1N=Nc1ccc([N+](=O)[O-])cc1[N+](=O)[O-],-6
CC(C)(C)CCCCCC(=O)[O-].CC(C)(C)CCCCCC(=O)[O-].[Zn+2],-2.721
NNC(=O)Nc1ccccc1,-2.33
CC(Cl)C(C)(C)Cl (configuration not stated),-2.69
COc1cc(OC)c(NC(=O)c2cc3ccccc3c(/N=N/c3cc(C(=O)Nc4ccc(C(N)=O)cc4)ccc3OC)c2O)cc1Cl,-7.866
O=C(O)Cc1ccc(Cl)cc1Cl,-2.919
C=C(O)[C@@H](N)CSCCCCCSC[C@H](N)C(=C)O,-2.907
C=C(C)C(CC(=O)O)C(=O)O (configuration not stated),-0.321

A selection of 9 entries from above:

compound,log solubility (log10 mol/L)
CC(C)(C)CCCCCC(=O)[O-].CC(C)(C)CCCCCC(=O)[O-].[Zn+2],-2.721
C#CCOc1c(I)cc(I)cc1/C=N/NC(=O)Cn1nnc(-c2ccccc2Cl)n1,-2.665
Nc1c(Cl)c(Cl)cc(Cl)c1Cl,-4.38
CC1(C)COC(C)(CCCc2ccc(Cl)cc2)N1C(=O)n1ccnc1.CC1(C)COC(C)(CCCc2ccc(Cl)cc2)N1C(=O)n1ccnc1.O=C(O)/C=C/C(=O)O (stereo partly drawn),-3.73
CCCCCCCCCCCCOC(=O)/C=C/C(=O)OCCCCCCCCCCCC,-6.48
CN(C)c1ccc(N=Nc2ccc(S(=O)(=O)O)cc2)cc1,-3.86
CC1CCC(C)(C(=O)O)C1(C)C (configuration not stated),-3.027
CC1=NOC(=O)C1=NO,-0.539
O=C(O)[C@H]1CC[C@H](C(=O)O)CC1,-2.333

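These are experimental values that the OPERA curators gathered from public databases to train and test their QSAR models. The files give a single number for a compound and property, which may rest on several reports. How each value was measured is not recorded, so precision varies. A value may pool stereoisomers or salt forms, and the file does not say which form was measured. Some upstream entries may be estimates or bounds without being marked so.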

Data: OPERA 2.9 data sets, kmansouri/OPERA on GitHub.